US9561289B2, “Peptides for inhibiting tumor growth” (OSPEDALE SAN RAFFAELE SRL, priority 2012, dated 2017)

System: EA.hy926 endothelial cells
Assay: Endothelial cell adhesion to vitronectin-coated plates
Type: cell-based, human
Details: EA.hy926, substance added to supernatant
Procedure: Endothelial cell (EA.hy926) adhesion to microtiter plates coated with human vitronectin was carried out as described ([25]). IsoDGR#1 and isoDGR#3 were added to the supernatant during cell adhesion. Data from a representative experiment of three independent experiments is shown. Mean±S.E (n=3).
(A) Endothelial EA.hy926 cell were mixed with isoDGR#1-HSA (9:1) and linker-HSA (*HSA), left to adhere for 2 h to microtiter plates coated with vitronectin and stained with crystal violet as described. Cell adhesion was quantified by spectrophotometric measurement (A570 nm).

*HSA(0:1): sulfo-SMCC-activated albumin lacking the peptide [reference compound]
inhibition of endothelial cell adhesion to vitronectin: completely inactive
